Data reported in patent publication US6489352B2, “Conformationally constrained compounds as pharmaceutical agents” (Warner-Lambert Company, priority 1998, dated 2002).

Sequences of proteins named here, by UniProt entry; tags and fusion partners are left off. A change or cut given only in a name is not applied to a line headed by its entry. Residues count along the entry.
UniProt A0A287BIN3, 25-1109: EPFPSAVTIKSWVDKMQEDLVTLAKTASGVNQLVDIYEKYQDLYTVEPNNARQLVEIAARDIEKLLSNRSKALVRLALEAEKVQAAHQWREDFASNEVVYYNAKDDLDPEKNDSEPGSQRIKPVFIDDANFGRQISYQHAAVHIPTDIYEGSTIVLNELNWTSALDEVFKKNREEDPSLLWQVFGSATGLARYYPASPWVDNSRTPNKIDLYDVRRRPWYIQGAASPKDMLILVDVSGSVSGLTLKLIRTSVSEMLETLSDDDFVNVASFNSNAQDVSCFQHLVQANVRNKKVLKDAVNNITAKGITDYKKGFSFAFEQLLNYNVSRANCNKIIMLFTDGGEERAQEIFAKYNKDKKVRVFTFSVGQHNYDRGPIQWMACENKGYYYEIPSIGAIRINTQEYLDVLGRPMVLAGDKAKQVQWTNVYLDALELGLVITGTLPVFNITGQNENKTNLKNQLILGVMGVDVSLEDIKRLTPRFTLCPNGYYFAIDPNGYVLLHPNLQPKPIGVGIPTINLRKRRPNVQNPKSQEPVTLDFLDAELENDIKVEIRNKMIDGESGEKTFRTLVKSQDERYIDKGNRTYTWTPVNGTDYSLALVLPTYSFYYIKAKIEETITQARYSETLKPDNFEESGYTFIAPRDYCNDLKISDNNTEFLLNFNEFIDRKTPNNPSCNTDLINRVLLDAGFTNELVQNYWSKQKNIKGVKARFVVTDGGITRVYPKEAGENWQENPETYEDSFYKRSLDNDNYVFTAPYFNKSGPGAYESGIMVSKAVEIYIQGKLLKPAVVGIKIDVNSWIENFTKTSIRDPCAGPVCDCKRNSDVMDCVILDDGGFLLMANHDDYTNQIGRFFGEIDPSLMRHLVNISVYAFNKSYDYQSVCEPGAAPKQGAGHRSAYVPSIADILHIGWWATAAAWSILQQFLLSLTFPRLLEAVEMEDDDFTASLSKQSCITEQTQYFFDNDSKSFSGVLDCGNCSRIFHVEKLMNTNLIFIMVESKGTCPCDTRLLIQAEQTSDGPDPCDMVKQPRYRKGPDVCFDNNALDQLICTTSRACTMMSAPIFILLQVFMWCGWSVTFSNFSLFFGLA

Biological target: T1, α2δ subunit derived from porcine brain tissue (Sus scrofa, UniProt A0A287BIN3)
T1 construct: the α2δ subunit derived from porcine brain tissue was used; from tissue; host or cells: porcine brain tissue
Assay: radioligand binding assay using [3H]gabapentin and the α2δ subunit

In the case of NCC1(CC(=O)O)CCCCC1 [Gabapentin, 1-(aminomethyl)-cyclohexaneacetic acid, reference compound], the IC50 is reported as 100 to 120 nM.
